Measurements from patent US7683073B2, “Isoquinoline-1,3,4-trione compounds, the synthetic method and the use thereof” (Shanghai Institute of Materia Medica, Chinese Academy of …, priority 2005, dated 2010).
pIC50: −log10 of the molar value.

Target: T1, caspase-3 (Homo sapiens, UniProt P42574)
T1 sequence (P42574 29-175 limits assumed): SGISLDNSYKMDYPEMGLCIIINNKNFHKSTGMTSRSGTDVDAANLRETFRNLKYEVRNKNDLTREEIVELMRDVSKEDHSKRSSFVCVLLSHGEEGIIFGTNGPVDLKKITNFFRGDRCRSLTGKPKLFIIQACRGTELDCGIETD
T1 sequence (P42574 176-277 limits assumed): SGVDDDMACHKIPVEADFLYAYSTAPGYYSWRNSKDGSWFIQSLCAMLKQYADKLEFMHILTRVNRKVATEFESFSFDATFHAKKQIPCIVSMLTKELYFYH
Experiment: biochemical

CC(=O)N[C@@H](CC(=O)O)C(=O)N[C@@H](CCC(=O)O)C(=O)N[C@H](C(=O)N[C@H](C=O)CC(=O)O)C(C)C [Ac-DEVD-CHO, Ac-Asp-Glu-Val-Asp-aldehyde]
pIC50: 7.47
